Values quoted from earlier work as cited in US8088918B2, “Noncardiotoxic pharmaceutical compounds” (Williamsburg Holdings LLC, priority 2004, dated 2012).

Details: cited from earlier work

SMILES: Cc1nc2n(c(=O)c1CCN1CCC(c3noc4cc(F)ccc34)CC1)CCCC2 [risperidone]
- pKa: 8.24
